From PMC10057977, “Use of In Vivo Imaging and Physiologically-Based Kinetic Modelling to Predict Hepatic Transporter Mediated Drug–Drug Interactions in Rats” (Pharmaceutics, 2023)

Assays:
rOatp1b = molecular target: T1, rOatp1b (Rattus norvegicus, UniProt Q9QZX8); format: in vivo; conditions: ketoconazole 3 mg/kg iv, p = 0.006
T1 construct: Drug administration and MRI acquisition were performed on animals anesthetized by inhalation of isoflurane; from tissue; host or cells: liver of living male Wistar rats (Charles River Laboratories)
T1 sequence (Q9QZX8 1-687): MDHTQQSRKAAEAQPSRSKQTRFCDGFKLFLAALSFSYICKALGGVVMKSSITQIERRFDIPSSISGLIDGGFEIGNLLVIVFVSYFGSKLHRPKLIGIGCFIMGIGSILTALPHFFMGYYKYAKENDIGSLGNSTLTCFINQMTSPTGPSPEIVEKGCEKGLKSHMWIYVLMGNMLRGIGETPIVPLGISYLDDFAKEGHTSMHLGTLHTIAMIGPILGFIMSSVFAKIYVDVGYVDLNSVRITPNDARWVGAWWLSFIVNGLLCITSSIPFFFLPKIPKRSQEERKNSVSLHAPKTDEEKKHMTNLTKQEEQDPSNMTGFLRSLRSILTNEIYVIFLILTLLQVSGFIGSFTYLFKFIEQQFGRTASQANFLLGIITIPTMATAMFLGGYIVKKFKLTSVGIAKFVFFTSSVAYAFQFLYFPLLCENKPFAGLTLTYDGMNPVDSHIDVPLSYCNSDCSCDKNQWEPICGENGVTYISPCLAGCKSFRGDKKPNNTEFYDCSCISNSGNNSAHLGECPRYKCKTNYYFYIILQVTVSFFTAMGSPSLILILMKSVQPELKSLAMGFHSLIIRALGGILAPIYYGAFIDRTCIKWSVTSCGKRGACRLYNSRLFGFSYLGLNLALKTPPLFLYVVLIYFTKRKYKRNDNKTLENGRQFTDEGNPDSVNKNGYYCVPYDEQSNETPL

MRP2 = conditions: words in supplement S1.4; cited from earlier work

Compound: CC(=O)N1CCN(c2ccc(OCC3COC(Cn4ccnc4)(c4ccc(Cl)cc4Cl)O3)cc2)CC1 (centres unmarked) [Ketoconazole]
- relative change in gadoxetate khe vs control (rOatp1b): −65%
- MRP2 inhibition in vitro (MRP2): did not inhibit
